The results in this text go back to paper PMC6009858, “Tricyclic coumarin sulphonate derivatives with alkaline phosphatase inhibitory effects: in vitro and docking studies” (Journal of Enzyme Inhibition and Medicinal Chemistry, 2018).

The chains behind the UniProt entries cited, without tags or fusion partners. Residues count along the entry.
UniProt P09923, 20-528 limits assumed: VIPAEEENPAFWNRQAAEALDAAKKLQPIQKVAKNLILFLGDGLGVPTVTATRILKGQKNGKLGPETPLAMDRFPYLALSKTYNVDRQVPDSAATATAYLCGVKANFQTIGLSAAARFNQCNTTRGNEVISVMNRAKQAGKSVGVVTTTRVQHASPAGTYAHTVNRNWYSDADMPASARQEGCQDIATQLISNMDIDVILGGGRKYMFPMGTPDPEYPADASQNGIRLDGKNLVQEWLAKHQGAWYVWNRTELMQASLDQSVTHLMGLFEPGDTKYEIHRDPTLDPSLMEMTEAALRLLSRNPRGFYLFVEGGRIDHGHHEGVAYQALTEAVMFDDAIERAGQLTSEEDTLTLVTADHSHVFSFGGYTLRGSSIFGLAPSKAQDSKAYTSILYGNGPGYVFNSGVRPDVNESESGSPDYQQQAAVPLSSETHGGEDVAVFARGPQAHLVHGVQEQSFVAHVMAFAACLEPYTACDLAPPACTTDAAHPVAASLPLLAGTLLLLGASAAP
UniProt P05186, 18-524 limits assumed: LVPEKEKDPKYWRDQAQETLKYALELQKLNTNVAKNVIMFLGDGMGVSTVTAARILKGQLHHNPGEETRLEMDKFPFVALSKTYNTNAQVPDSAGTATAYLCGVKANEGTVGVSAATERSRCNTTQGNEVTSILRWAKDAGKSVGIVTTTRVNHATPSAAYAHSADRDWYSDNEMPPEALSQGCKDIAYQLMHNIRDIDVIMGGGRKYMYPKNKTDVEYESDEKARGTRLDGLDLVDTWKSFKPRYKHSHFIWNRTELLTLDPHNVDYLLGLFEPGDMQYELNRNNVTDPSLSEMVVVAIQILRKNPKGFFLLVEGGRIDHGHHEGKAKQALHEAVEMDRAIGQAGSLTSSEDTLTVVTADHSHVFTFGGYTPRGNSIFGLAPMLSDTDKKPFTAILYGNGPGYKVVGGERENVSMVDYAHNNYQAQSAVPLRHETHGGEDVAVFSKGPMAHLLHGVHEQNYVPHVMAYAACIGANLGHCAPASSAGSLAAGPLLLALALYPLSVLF

The target of experiment [1] is human intestinal alkaline phosphatase (h-IAP) (Homo sapiens, UniProt P09923). Put plainly: Alkaline phosphatase inhibition assay (h-IAP), CDP-star luminescence. The conditions noted are these: read-out: IC50 (µM) ± SEM h-IAP, n = 3, DEA buffer.
Experiment [2] concerns the target human tissue nonspecific alkaline phosphatase (h-TNAP) (Homo sapiens, UniProt P05186). In words: Alkaline phosphatase inhibition assay (h-TNAP), CDP-star luminescence. It is filed as biochemical. The conditions noted are these: read-out: IC50 (µM) ± SEM h-TNAP, n = 3, DEA buffer.

Turning to `CC(C)(C)c1ccc(S(=O)(=O)Oc2ccc3c4c(c(=O)oc3c2)CCCCCC4)cc1`, the 50% inhibitory concentration (IC50) worked out at 1.28 µM in experiment [1] and 1.85 µM in experiment [2].

In the case of `CC(C)(C)c1ccc(S(=O)(=O)Oc2ccc3c4c(c(=O)oc3c2)CCCCC4)cc1`, the IC50 was 3.92 µM in experiment [1] and 6.33 µM in experiment [2].

Turning to `O=c1oc2cc(OS(=O)(=O)c3ccc(C(F)(F)F)cc3)ccc2c2c1CCCCC2`, the 50% inhibitory concentration (IC50) in experiment [1] amounted to 2.64 µM; in experiment [2], 1.59 µM.
